AlphaSeq binding of Ab-14 light chain variants to a spike HR2 peptide

Source: Li et al. 2023 (doi:10.1038/s41467-023-39022-2), MIT Lincoln Laboratory and A-Alpha Bio; data file from the FLAb repository.

All variants were tested on one target, the spike HR2 peptide PDVDLGDISGINAS (SARS-CoV-2).

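The parent was found by panning a naive human phage display library on the peptide. These sequences belong to a second round, designed from the earlier measurements on random variants of the parent. Group labels follow the data file (En: ensemble of fine-tuned language models; GP: Gaussian process model; HC: hill climbing; Gen: genetic algorithm; Gibbs: Gibbs sampling; a sequence that several methods proposed may carry one label only). Affinity was read by AlphaSeq, a pooled yeast mating assay with surface-displayed partners. Pairs that bind mate more often; barcode pairs of the diploids are counted by sequencing. The ratio of observed to expected reads was calibrated, replicate by replicate, on BCL2-family standards whose Kd was known from biolayer interferometry. Mating was done six times.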

The variants keep the heavy chain, the linker and the frameworks of Ab-14 (scFv order VH, the linker GGGGSGGGGSGGGGS, VL).
VH: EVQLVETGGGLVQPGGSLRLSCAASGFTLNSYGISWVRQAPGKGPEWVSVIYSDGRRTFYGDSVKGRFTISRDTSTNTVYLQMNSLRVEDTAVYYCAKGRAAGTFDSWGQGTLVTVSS
VL: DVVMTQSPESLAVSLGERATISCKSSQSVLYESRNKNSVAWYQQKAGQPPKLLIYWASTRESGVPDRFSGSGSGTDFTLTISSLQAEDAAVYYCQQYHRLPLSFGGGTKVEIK

Sequences are complete VL domains. Variants here have more than six changes. Values are apparent Kd, the geometric mean of the replicates that gave a signal; lower means stronger binding. "nd" marks a missing value. The strain was present, yet no cells mated with the target were sequenced in any replicate, which points to weak or no binding. The parent sequence was in this pool as ten entries: three were never detected, three once, and four in most replicates, with averages from 2.2 nM to 240 nM.

* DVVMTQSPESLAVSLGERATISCKLSGSELGESRNKNSVAWYQQKAGQPPKLLIYSADTRLEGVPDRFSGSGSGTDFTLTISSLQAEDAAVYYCQQYHRLPLSFGGGTKVEIK [GP_Gibbs]: 960 pM (6 of 6 replicates; controls 1 of 18)
* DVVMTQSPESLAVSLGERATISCKLSGSVMMLQRNDNSVAWYQQKAGQPPKLLIYDASTRESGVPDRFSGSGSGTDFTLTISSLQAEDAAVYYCQQYHRLPLSFGGGTKVEIK [GP_Gibbs]: 8.7 nM (6 of 6 replicates; controls 1 of 18)
* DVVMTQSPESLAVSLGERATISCKLSGSMLYESRVKNNVAWYQQKAGQPPKLLIYDAHQRESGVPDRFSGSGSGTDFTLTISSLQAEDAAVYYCQMYHRLPLSFGGGTKVEIK [GP_Gibbs]: 1.6 nM (6 of 6 replicates; controls 2 of 18)
* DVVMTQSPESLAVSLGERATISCMFSQLMEYGSRYRNSVAWYQQKAGQPPKLLIYQASTREDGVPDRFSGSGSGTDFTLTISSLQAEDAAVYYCQQYHWLPLSFGGGTKVEIK [En_HC]: 9.5 nM (6 of 6 replicates; controls 0 of 18)
* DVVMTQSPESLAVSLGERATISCKITDKFLGLGNGRQNIAWYQQKAGQPPKLLIYHAMVAVEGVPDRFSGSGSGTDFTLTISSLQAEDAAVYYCQQYQQLPLAFGGGTKVEIK [En_Gibbs]: 10 nM (6 of 6 replicates; controls 4 of 18)
* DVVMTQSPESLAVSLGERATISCHITMGMYVAGRHSHSIAWYQQKAGQPPKLLIYQAETREKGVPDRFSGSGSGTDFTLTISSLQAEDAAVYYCQQYDRLPLSFGGGTKVEIK [En_Gen]: 5.5 nM (6 of 6 replicates; controls 0 of 18)
* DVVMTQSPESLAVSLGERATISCMISDTGLHDSRMQNSVAWYQQKAGQPPKLLIYNNSTREYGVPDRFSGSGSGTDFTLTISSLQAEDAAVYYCQQYHRLPLSFGGGTKVEIK [En_HC]: 83 nM (4 of 6 replicates; controls 1 of 18)
* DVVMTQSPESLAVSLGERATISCQFDMFENYQGEQNASIAWYQQKAGQPPKLLIYGTTNRLTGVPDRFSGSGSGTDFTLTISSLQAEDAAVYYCQQYQKLPLSFGGGTKVEIK [En_Gibbs]: 3.5 nM (6 of 6 replicates; controls 0 of 18)
* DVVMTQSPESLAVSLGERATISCKLSQSVNGQSRNKNSVAWYQQKAGQPPKLLIYHASTREQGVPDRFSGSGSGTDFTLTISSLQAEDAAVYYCQDYHRLPLSFGGGTKVEIK [GP_Gibbs]: 16 nM (6 of 6 replicates; controls 1 of 18)
* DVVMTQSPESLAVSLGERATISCKLQNFSQNYNDIWNSIAWYQQKAGQPPKLLIYDESMKHTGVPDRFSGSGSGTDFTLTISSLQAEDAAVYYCQHYDRLPLVFGGGTKVEIK [En_Gibbs]: 340 nM (6 of 6 replicates; controls 2 of 18)
* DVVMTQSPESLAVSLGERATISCKLYEAGEESSKVDRSIAWYQQKAGQPPKLLIYEMITRQEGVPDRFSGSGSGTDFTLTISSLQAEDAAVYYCQQYQRLPLSFGGGTKVEIK [En_Gibbs]: 2.4 nM (6 of 6 replicates; controls 3 of 18)
* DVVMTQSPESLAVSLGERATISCSLMQVGGYESNRKNSIAWYQQKAGQPPKLLIYDLRTRESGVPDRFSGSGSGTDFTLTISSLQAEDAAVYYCQQYHRLPLSFGGGTKVEIK [En_HC]: 5.2 nM (6 of 6 replicates; controls 1 of 18)
* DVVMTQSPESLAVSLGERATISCRLQQEHVGYNKKMNAIAWYQQKAGQPPKLLIYQGSQRCHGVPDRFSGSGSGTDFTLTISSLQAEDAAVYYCQSYDRLPLSFGGGTKVEIK [En_Gibbs]: nd (0 of 6 replicates; controls 0 of 18)
* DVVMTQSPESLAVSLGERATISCTISQVMNTLTRNTNNVAWYQQKAGQPPKLLIYDLTEREKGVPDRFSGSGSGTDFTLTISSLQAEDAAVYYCQQYFRLPLTFGGGTKVEIK [En_Gen]: 980 pM (6 of 6 replicates; controls 1 of 18)
* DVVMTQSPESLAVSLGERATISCKISQMIRVGSTAMNSIAWYQQKAGQPPKLLIYEEVTRAKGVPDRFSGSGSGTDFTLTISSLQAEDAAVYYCQQYHRLPLAFGGGTKVEIK [En_Gen]: 110 nM (3 of 6 replicates; controls 1 of 18)
* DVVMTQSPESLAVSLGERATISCKLTNVTGTEKVLGNNVAWYQQKAGQPPKLLIYEMETREEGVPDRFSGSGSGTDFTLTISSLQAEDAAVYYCQQYNRLPLSFGGGTKVEIK [En_Gen]: 23 nM (5 of 6 replicates; controls 0 of 18)
* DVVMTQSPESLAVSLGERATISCKLQAQQEYWSRNKNSVAWYQQKAGQPPKLLIYQASTRESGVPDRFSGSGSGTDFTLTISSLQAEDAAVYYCQQYHRLPLSFGGGTKVEIK [GP_Gibbs]: 300 pM (6 of 6 replicates; controls 1 of 18)
* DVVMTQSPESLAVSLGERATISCKISGMVNFESTHINAVAWYQQKAGQPPKLLIYQMSTREEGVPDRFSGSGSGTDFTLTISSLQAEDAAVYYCQQYFRLPLSFGGGTKVEIK [En_HC]: 6.6 nM (6 of 6 replicates; controls 1 of 18)
* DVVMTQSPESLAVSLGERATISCKIGHGLTTESRNKNSVAWYQQKAGQPPKLLIYQTETRLSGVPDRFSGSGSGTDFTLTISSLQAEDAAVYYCQHYHRLPLSFGGGTKVEIK [En_HC]: 370 nM (5 of 6 replicates; controls 2 of 18)
* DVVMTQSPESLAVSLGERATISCKWFQSVLMESMLVNSVAWYQQKAGQPPKLLIYNASQRESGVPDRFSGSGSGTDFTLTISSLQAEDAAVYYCQQYHRLPLSFGGGTKVEIK [GP_Gibbs]: 42 nM (5 of 6 replicates; controls 0 of 18)
* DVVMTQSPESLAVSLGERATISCSLEAFEYQIMKDLNNIAWYQQKAGQPPKLLIYNTNTRVNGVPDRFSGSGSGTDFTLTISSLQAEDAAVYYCQQYMRLPFMFGGGTKVEIK [En_Gibbs]: 1.6 nM (6 of 6 replicates; controls 0 of 18)
* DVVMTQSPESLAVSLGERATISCKLAMALSVEFGTYHGVAWYQQKAGQPPKLLIYDADHKADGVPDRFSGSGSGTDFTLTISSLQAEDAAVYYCQQYNRLPLSFGGGTKVEIK [En_Gibbs]: 840 pM (6 of 6 replicates; controls 0 of 18)
* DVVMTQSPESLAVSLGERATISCKLSMSVLMEQRNVNSVAWYQQKAGQPPKLLIYSANTREEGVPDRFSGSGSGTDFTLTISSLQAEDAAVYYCQQYHRLPLSFGGGTKVEIK [GP_Gibbs]: 350 pM (6 of 6 replicates; controls 1 of 18)
* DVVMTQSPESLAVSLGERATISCKLLDWEYGTWAMNSAIAWYQQKAGQPPKLLIYDAALESDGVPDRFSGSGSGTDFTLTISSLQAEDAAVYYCQQYDRLPLTFGGGTKVEIK [En_Gibbs]: 100 nM (4 of 6 replicates; controls 1 of 18)

Excerpt, the first 3 entries:

* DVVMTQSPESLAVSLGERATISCKLSGSELGESRNKNSVAWYQQKAGQPPKLLIYSADTRLEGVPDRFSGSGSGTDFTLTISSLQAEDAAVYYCQQYHRLPLSFGGGTKVEIK [GP_Gibbs] = 960 pM (6 of 6 replicates; controls 1 of 18)
* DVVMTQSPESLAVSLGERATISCKLSGSVMMLQRNDNSVAWYQQKAGQPPKLLIYDASTRESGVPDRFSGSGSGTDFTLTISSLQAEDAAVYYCQQYHRLPLSFGGGTKVEIK [GP_Gibbs] = 8.7 nM (6 of 6 replicates; controls 1 of 18)
* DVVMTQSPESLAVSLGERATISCKLSGSMLYESRVKNNVAWYQQKAGQPPKLLIYDAHQRESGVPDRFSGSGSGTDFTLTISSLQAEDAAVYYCQMYHRLPLSFGGGTKVEIK [GP_Gibbs] = 1.6 nM (6 of 6 replicates; controls 2 of 18)

Empty control strains, which show no peptide, gave a signal in 4% of pairings with all light chain designs; the median was 430 nM and 95% of these signals were weaker than 38 nM. No background was subtracted. The control count says in how many pairings with the empty strains this scFv gave a signal. In the paper, a design with two or fewer of six values counts as a poor binder. A sequence measured in both rounds can read differently, since the two assays cover different ranges.